The source of these data is US20010012631A1, “Plant clonal lines and plants having elevated secondary metabolite levels” (University of Massachusetts Medical Center, a Massachusetts …, priority 1997, published 2001).

Test [1] relates to oregano line 0-1. Conditions: ± SD; for RA: line 0-1, 30d culture on supplemented media (Proline 4 mM, A2C 50 μM, Ornithine 5 mM), mean of 4 extracts; for RA Levels: 30 days (Example 3).
Test [2] concerns oregano line 0-1. The note with it: ± SD, mean of 4 extracts.
Where [3] appears, read: line 0-1, 15d culture on supplemented media (Proline 4 mM, A2C 50 μM, Ornithine 5 mM).
[4] abbreviates: line 0-1, 30d culture on supplemented media (Proline 4 mM, A2C 50 μM, Ornithine 5 mM).

Molecules are shown by their SMILES. Read-outs that look alike come from different tables or passages of the source.

On to `O=C(O)[C@@H]1CCCN1` [Proline], for which the RA in test [1] is 3.51 ± 0.34 mg/g FW. For the same compound, the Proline in test [2] (setting [3]) was determined as 62.15 ± 9.84 μmol/g FW; in test [2] (setting [4]) it was 18.34 ± 7.40 μmol/g FW.

`O=C(O)C1CCN1` (centres unmarked) [A2C, azetidine-2-carboxylic acid]: in test [1], the RA amounted to 4.28 ± 1.18 mg/g FW. In addition, the “RA Levels” value in test [1] (line 0-1, A2C 100 μM) is 5.1 ± 0.4 mg/g FW; in test [1] (line 0-1, A2C 200 μM), 5.4 ± 0.4 mg/g FW. Moreover, the Proline in test [2] (setting [3]) is 0.91 ± 0.33 μmol/g FW; in test [2] (setting [4]) it was 0.41 ± 0.17 μmol/g FW.
